# In patent US20090062386A1, “Simulants of Toxants for Training and Testing” (published 2009):
# Tests used:
# [1] = Surface tension; conditions: simulants and EL, Table IV
# [2] = Volatility (vapor concentration); conditions: simulants and EL, Table IV
# [3] = Density of simulants and toxants; conditions: simulants and EL, Table IV
# [4] = relative to air
# [5] = Vapor pressure by laboratory analysis
# [6] = Kinematic viscosity
# [7] = Accelerated shelf-life testing, TA and EL by HPLC; conditions: aged simulant samples, data not shown
SMILES,Surface Tension [1] [dynes/cm],Volatility [2] [mg/m^3],Density [3] [g/mL],vapor density [4],"Vapor Pressure ([5]; @ 25° C., simulants and EL, Table IV) [Torr]",vapor pressure Pv ([5]; @ 30° C.) [Torr],viscosity ([6]; at 20° C.) [cSt],"Kinematic Viscosity ([6]; simulants and EL, Table IV) [cSt]",chemical stability of EL [7],vapor pressure Pv ([5]; @ 25° C.) [Torr],viscosity ([6]; at 25° C.) [cSt]
CCOC(=O)C(C)O (stereo not drawn),30.0,17130,1.03,4.07,3.7,5,2.63,2.63,stable,–,–
CC(=O)OCC(COC(C)=O)OC(C)=O,–,–,–,7.52,–,–,–,–,–,0.0025,14.7
